Source: patent US20020048571A1, “Chimeric polypeptides of serum albumin and uses related thereto” (priority 1999, published 2002)

Legend:
[1] = tested on: human umbilical vein endothelial cells (HUVECs); assay: HUVEC proliferation assay with purified MSA-peptide fusion proteins; assay type: cell-based; conditions: FGF-stimulated
Description: (§1) Inhibition of BCE and HUVEC proliferation by serum albumin-EC binding peptide fusions. […] In the MSA-peptide fusions the peptide sequence was inserted into a cysteine constrained loop between amino acids 53 and 62. The proteins were produced by COS-7 cells that were transfected with expression plasmids that directed the synthesis and secretion of the particular recombinant protein. […] In MSA-1H5 and MSA-myc constructs (negative control), the peptides were inserted into the loop at amino acid glu57. FIGS. 6 and 7 show the inhibitory effect of the purified proteins on the proliferation of BCE and HUVEC cells that were stimulated by FGF.
(§2) The transfected COS7-L cells were cultured in defined serum-free media (VP-SFM). Each day for 5 days, the conditioned media were collected from the cells, centrifuged to remove dead cells and other cellular debris, and then frozen. […] The concentration of the albumin proteins was determined by Western blot analysis of each preparation using a rabbit anti-MSA antibody and using purified MSA of known concentration to generate a standard curve. Following development of the blot and exposure to film the autoradiographs were analyzed using the Gel Doc 1000 image analysis system and Molecular Analyst software (BioRad).

[2] = tested on: bovine capillary endothelial cells (BCE); assay: BCE proliferation assay with purified MSA-peptide fusion proteins (CyQUANT); assay type: cell-based; conditions: FGF-stimulated (1 ng/ml), 72 h
Description: as §1
as §2, with “(VP-SFM).” for “(VP-SFM). Each day for 5 days, the conditioned media were collected from the cells, centrifuged to remove dead cells and other cellular debris, and then frozen.”, “(BioRad). […]” for “(BioRad).”
After the 72 h incubation, the media was removed, and the plates were washed twice with PBS and frozen at −80° C. Proliferation of the BCE cells was assessed using the CyQUANT® cell proliferation assay kit according to the manufacturer's recommendations.

Substance: MSA: full-length mouse serum albumin (negative control)
- inhibition of HUVEC proliferation (active range / effect in words) [1]: did not significantly affect
- inhibition of BCE proliferation (active range / effect in words) [2]: did not significantly affect
